# Measured affinities in a library of Ab-14 light chain variants

Values reported by Engelhart et al. 2022, doi:10.1038/s41597-022-01779-4 (FLAb copy).

The target is the same throughout: PDVDLGDISGINAS, from the HR2 region of SARS-CoV-2 spike.

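The library (AAYL50) carries one to three amino acid substitutions per variant, with no insertions or deletions. Affinity was read by AlphaSeq, a pooled yeast mating assay with surface-displayed partners. The frequency of each diploid, read from paired DNA barcodes, reflects how well the two displayed proteins bind. Read counts were normalised to the haploid input and turned into Kd by a linear fit to BCL2-family pairs of known affinity, for each replicate. The assay was run in three technical replicates.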

Parent: Ab-14, a human scFv built as VH, a (GGGGS)3 linker, VL. Only the CDRs of the light chain vary.
VH: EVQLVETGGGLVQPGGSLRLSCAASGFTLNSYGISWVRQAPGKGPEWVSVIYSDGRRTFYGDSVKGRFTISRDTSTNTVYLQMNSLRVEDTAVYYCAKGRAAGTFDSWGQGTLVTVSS
VL: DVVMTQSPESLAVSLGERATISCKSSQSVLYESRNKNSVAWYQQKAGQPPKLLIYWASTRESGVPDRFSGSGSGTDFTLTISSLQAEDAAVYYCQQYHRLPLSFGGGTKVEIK

The parent's light chain CDRs are KSSQSVLYESRNKNSVA, WASTRES, QQYHRLPLS; each variant's own CDRs replace them letter for letter. Affinities are written as log10 Kd with Kd in nM; a lower number is a better binder. Where no diploid with the target was found in that replicate, the entry reads "nd": below detection, most likely a poor binder, though not proof of it. In this assay the parent's reference entry averaged 0.65; its copy inside this library read 1.68. As a blank, each scFv also met three strains without target: over library AAYL50, 18% of these pairings were detected, typically at 4.19 and seldom below 2.99. Also given: how often the same scFv was detected with the empty control strains, with their mean in brackets.

CDR-L1 | CDR-L2 | CDR-L3 | log10 Kd (nM) by replicate | signal with controls
KSSQSVLYSSRNKNSVA | WQSTRES | QQYHRLPPS | 4.63 4.20 4.48 | 6 of 9 (4.52)
KSSQSVLYESRNKNSVA | WHSTRNS | QQYHRLPLS | nd nd 4.80 | 0 of 9
KSSQSVSYESRNPNSVA | WASTRES | QQYHRLPLS | 0.62 0.86 0.75 | 6 of 9 (4.11)
KSSQSVLKESRNKNSVA | WASTRGS | QQYHILPLS | 3.32 2.69 2.87 | 3 of 9 (4.23)
KSSQSVLYESRNKNAVA | WASTRES | QCRHRLPLS | nd nd nd | 2 of 9 (3.70)
KSSQSVLYESRNKNSVA | WKSKRES | QQYHKLPLS | nd 3.65 nd | 0 of 9
KSSQSVLYESRNDDSVA | WASTRES | QQYTRLPLS | nd 2.60 3.43 | 2 of 9 (3.34)
KSYQSVLYKSRWKNSVA | WASTRES | QQYHRLPLS | 3.77 3.77 nd | 1 of 9 (3.61)
KSSQSVLYEPRNKNSVA | EASPRES | QQYHRLPLS | 3.20 2.98 3.03 | 3 of 9 (4.16)
KSSQEVLYESRNKNSVA | RASTRES | QQYHRLPLM | 0.51 0.85 0.89 | 3 of 9 (3.55)
KSSQSVLTESRNYNSVA | WLSTRES | QQYHRLPLS | 2.55 2.64 2.71 | 0 of 9
KSSQSVLYESRNKNSVA | WASTRES | QQYHRHMLS | 0.67 0.95 0.75 | 0 of 9
KSSQSVLYESRNKNSVA | WAHTFES | QIYHRLPLS | nd nd nd | 2 of 9 (4.46)
FSSQSVLYESRNKNSVA | WASTRMS | QQYHRLPLI | 1.30 1.45 1.61 | 0 of 9
ESIQSVLRESRNKNSVA | WASTRES | QQYHRLPLS | nd nd nd | 0 of 9
KSSQSDLYESMNKPSVA | WASTRES | QQYHRLPLS | 1.72 1.66 1.68 | 3 of 9 (3.84)
KSSQFVLYESRNKNSVA | WASTRNS | QQWHRLPLS | 2.01 2.05 2.06 | 3 of 9 (4.15)
YSSQPVLYESRNKNSVA | WWSTRES | QQYHRLPLS | nd nd nd | 2 of 9 (3.72)
DSSNSVLYESRNKNHVA | WASTRES | QQYHRLPLS | nd nd nd | 0 of 9
GSSQSVLYESRNSNSPA | WASTRES | QQYHRLPLS | nd nd nd | 2 of 9 (4.89)
KSSQDVLYESRNKNYVA | WASTRES | QQNHRLPLS | 4.15 3.31 4.98 | 1 of 9 (3.10)
KSSESVLYESRNKMSVA | WYSTRES | QQYHRLPLS | 3.74 nd 3.37 | 2 of 9 (4.84)
KSSQSVLYESRNKNSVA | WASTRES | QQYHRSPLQ | 0.57 0.72 0.67 | 3 of 9 (3.40)
KCSQSVGYESRNKNSVA | WASWRES | QQYHRLPLS | nd nd nd | 1 of 9 (3.75)
KNSQSFLYESRNKNSVA | WASTRES | QQYHRAPLS | nd nd nd | 0 of 9
KGSQSVLYELRNKNSVA | WASTRES | QQYHRLPIS | 5.33 nd 3.24 | 3 of 9 (4.63)
KSSQSVLYESRNKNSVA | WAAFRES | QQYHRLTLS | nd nd nd | 0 of 9
KNSQSVLYASRNKQSVA | WASTRES | QQYHRLPLS | 3.41 3.06 nd | 2 of 9 (2.95)
KSSQSVLYESRNKMSVA | WASTRES | QQYHALNLS | nd nd 4.89 | 2 of 9 (4.28)
KSSQSVLYESRNKNSVA | WASGFES | QQWHRLPLS | nd nd nd | 0 of 9
KSSQSVLYESRNKNSVA | WASPRES | QQYHRLQLW | nd nd nd | 0 of 9
KGSQSVLYESRNKNVVA | WASTRES | QTYHRLPLS | nd 4.56 4.33 | 0 of 9
KSSQNVLYESRNKSSVA | WASTRES | QQYHRLPLS | 1.13 1.20 1.06 | 2 of 9 (4.58)
KSSQSVLYENINKNSVA | WASTRES | QQYHMLPLS | 0.60 0.85 0.83 | 1 of 9 (4.32)
KSSQSVLYESRIKFSVE | WASTRES | QQYHRLPLS | nd nd 5.69 | 1 of 9 (5.59)
KSDQSVLYESRCKNSVA | WASTRES | QQYHRLPLG | 2.49 2.07 3.18 | 1 of 9 (2.90)
KSSQSVLYESRNKNSRA | SASTRES | QKYHRLPLS | nd nd nd | 0 of 9
KSSQSDLPESRNKNSVA | WASTRES | QQSHRLPLS | nd nd nd | 0 of 9
KSSQLVLYESRNHNSVA | WASTRES | QQYHRLPIS | nd nd nd | 0 of 9
KSSQGVLYESRNKNSVA | HASTRES | QQYHRLPHS | nd 2.80 nd | 0 of 9
KSSQSVLYEIRNKNSVA | WASQREQ | QQYHRLPLS | 1.73 1.82 1.77 | 3 of 9 (4.66)
KSSQSVLYESRNKNSVA | WASTRES | QQYHRLMNR | nd nd 2.01 | 1 of 9 (2.73)
KSSHSVPYESRNKNSVA | WAQTRES | QQYHRLPLS | nd nd 1.94 | 0 of 9
KSSHSVLYESRNKCSVA | WASTRES | QQYHRLPLS | 2.24 2.26 2.32 | 0 of 9
KSSQSVLYESWFKNSVA | WASTRES | QQYHRLPLS | 2.09 2.14 2.10 | 1 of 9 (4.32)
KSSQSVLYESVNKNQVA | WASTRES | QQYHRLPGS | nd nd nd | 0 of 9
KSSQSVLWESRNKNSVQ | WASTPES | QQYHRLPLS | nd nd nd | 2 of 9 (3.43)
KMPQSVLYESRNKNSVA | WASTIES | QQYHRLPLS | 0.50 0.77 0.69 | 2 of 9 (4.93)
KSSQSVLYESRNKNSVA | WASTRES | CPYDRLPLS | 1.10 1.43 1.25 | 3 of 9 (3.79)
KSSQSVLYESRNKNSVW | WASTRES | QQGHRPPLS | nd nd 3.91 | 3 of 9 (4.11)
KSSQSVLYESRNKNSVA | WFSTRAS | QQYHRLPSS | nd nd 3.59 | 0 of 9

A selection of 6 entries from above:

| CDR-L1 | CDR-L2 | CDR-L3 | log10 Kd (nM) by replicate | signal with controls |
|---|---|---|---|---|
| KSSQSVLYESRNDDSVA | WASTRES | QQYTRLPLS | nd 2.60 3.43 | 2 of 9 (3.34) |
| KSSQSVLYESRNKNSVA | WAHTFES | QIYHRLPLS | nd nd nd | 2 of 9 (4.46) |
| ESIQSVLRESRNKNSVA | WASTRES | QQYHRLPLS | nd nd nd | 0 of 9 |
| KSSQSVLYSSRNKNSVA | WQSTRES | QQYHRLPPS | 4.63 4.20 4.48 | 6 of 9 (4.52) |
| KSYQSVLYKSRWKNSVA | WASTRES | QQYHRLPLS | 3.77 3.77 nd | 1 of 9 (3.61) |
| KSSQSVLYESWFKNSVA | WASTRES | QQYHRLPLS | 2.09 2.14 2.10 | 1 of 9 (4.32) |